## Ab-14 heavy chain CDR variants: yeast mating affinities

The measurements come from Li et al. 2023 (doi:10.1038/s41467-023-39022-2) through the FLAb antibody collection.

The target is the same throughout: PDVDLGDISGINAS, from the HR2 region of SARS-CoV-2 spike.

The variants keep the light chain, the linker and the frameworks of Ab-14 (scFv order VH, a 15-residue (Gly4Ser)3 linker, VL).
VH: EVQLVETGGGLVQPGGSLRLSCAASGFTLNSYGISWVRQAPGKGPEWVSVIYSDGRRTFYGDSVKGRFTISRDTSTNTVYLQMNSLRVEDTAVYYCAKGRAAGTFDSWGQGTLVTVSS
VL: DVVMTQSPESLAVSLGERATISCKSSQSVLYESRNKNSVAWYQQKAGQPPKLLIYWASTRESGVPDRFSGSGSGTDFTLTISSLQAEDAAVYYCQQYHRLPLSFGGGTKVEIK

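Phage display of a naive human antibody library on the peptide gave the parent. These sequences belong to a second round, designed from the earlier measurements on random variants of the parent. Several design methods are mixed in this list. Affinity was read by AlphaSeq, a pooled yeast mating assay with surface-displayed partners. Pairs that bind mate more often; barcode pairs of the diploids are counted by sequencing. A regression on co-assayed BCL2-family reference pairs converts the normalised counts of each replicate to an apparent Kd. The assay was run in six technical replicates.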

Changes read parent residue, position, new residue, counted from the first residue of the VH shown. Variants here have at most six changes. The Kd shown is the geometric mean over detected replicates; a lower Kd is a better binder. Where no diploid with the target was found in any replicate, the entry reads "nd": below detection, most likely a poor binder, though not proof of it. The authors averaged sequences with at least three values out of six and counted those with two or fewer as poor binders. Nonspecific signal, from three strains lacking the peptide, appeared in 1% of pairings of all heavy chain designs, centred on 120 nM (5% of these signals below 7.0 nM); values are not corrected for it. A sequence measured in both rounds can read differently, since the two assays cover different ranges. The parent sequence was in this pool as ten entries: three were never detected, three once, and four in most replicates, with averages from 2.2 nM to 240 nM.

* R56K+A101V+S107Q = 46 nM (1 of 6 replicates)
* N30E+S53A+S63R+R100Q = 660 pM (6 of 6 replicates)
* T28Q+K65R+T104W = nd (0 of 6 replicates)
* T28H+R56K+G61V+A101T = 110 nM (3 of 6 replicates)
* S53P+F105I+D106K = nd (0 of 6 replicates)
* F27Y+N30A = nd (0 of 6 replicates)
* T28S+S31E+G61S+R100N = 1.1 nM (6 of 6 replicates)
* S31K+K65R = 55 nM (1 of 6 replicates)
* N30D+S63A+F105A+D106L = nd (0 of 6 replicates)
* T28S+G61A+R100S+A101E = 1.4 nM (6 of 6 replicates)
* T28D+S31Q+I34V = 1.0 nM (6 of 6 replicates)
* T28G+S31D+G61I+A101L = 12 nM (6 of 6 replicates)
* N30D+G61H+A101L = 4.8 nM (6 of 6 replicates)
* R56K+A101V+S107F = nd (0 of 6 replicates)
* S63D+R100D = 61 nM (6 of 6 replicates)
* S31N+R56M+G61S = 3.7 nM (6 of 6 replicates)
* T28D+G61V+A101T+S107F = 5.2 nM (6 of 6 replicates)
* T28S+S31Q+G103L = 6.3 nM (4 of 6 replicates)
* T28C+L29V+G99D+S107Q = nd (0 of 6 replicates)
* L29V+D62P = 140 nM (2 of 6 replicates)
* T28N+G61A+A101Y = 9.5 nM (6 of 6 replicates)
* F59S+F105I = nd (0 of 6 replicates)
* T28D+S31Q+G61S = 690 pM (6 of 6 replicates)
* T28E+S31E+F59Y = 5.0 nM (6 of 6 replicates)
* G61S+R100Q+S107K = 6.2 nM (5 of 6 replicates)
* T28S+S31E+D62Q = 4.3 nM (6 of 6 replicates)
* T58V+F59A+G61N+K65A+A101D+G103D = nd (0 of 6 replicates)
* T28E+S31E+G61A+A101D = 3.1 nM (6 of 6 replicates)
* L29P+R56A+S63E+T104Q+D106H = nd (0 of 6 replicates)
* F27C+Y52K+G61S+A102G = nd (0 of 6 replicates)
* G61H+R100Q+A101E = 2.1 nM (5 of 6 replicates)
* F59A+G61S+S107N = nd (0 of 6 replicates)
* S53A+G61I+R100T+A102M = nd (0 of 6 replicates)
* T28D+S63R+R100Q+S107L = 20 nM (6 of 6 replicates)
* G26M+T28D+R100Q+A101T+S107A = 29 nM (6 of 6 replicates)
* T28H+G61A+A101V = 2.5 nM (6 of 6 replicates)
* T28D+S63N = 2.5 nM (6 of 6 replicates)
* T28D+R100W+S107K = 13 nM (4 of 6 replicates)
* T28D+A101E+S107D = 1.0 nM (6 of 6 replicates)
* G26D+S63A+R100E+A102V+T104M = nd (0 of 6 replicates)
* S63R+K65S+G103W+T104G = nd (0 of 6 replicates)
* N30D+S63K+A101T = 5.9 nM (6 of 6 replicates)
* S63K+R100E+T104I = 25 µM (1 of 6 replicates)
* T28N+F59G+F105S = nd (0 of 6 replicates)
* T28S+G61K+R100Q+A101T = 67 nM (5 of 6 replicates)
* T28P+S31D+F59Y = nd (0 of 6 replicates)
* T28Q+S31D+R100T = 2.7 nM (5 of 6 replicates)
* S31N+G61E+R100L = nd (0 of 6 replicates)
* T28R+N30D+V50I+A101P = nd (0 of 6 replicates)
* G26M+T28S+S53A+R100E = 31 nM (3 of 6 replicates)
* T28E+L29M+F59A = 25 nM (6 of 6 replicates)
* F27I+R56M = 55 nM (5 of 6 replicates)

A selection of 7 entries from above:

| changes | apparent Kd | seen in |
|---|---|---|
| T28D+R100W+S107K | 13 nM | 4/6 |
| T28C+L29V+G99D+S107Q | nd | 0/6 |
| F59A+G61S+S107N | nd | 0/6 |
| T28S+G61K+R100Q+A101T | 67 nM | 5/6 |
| T28Q+K65R+T104W | nd | 0/6 |
| T28D+S63N | 2.5 nM | 6/6 |
| S53P+F105I+D106K | nd | 0/6 |